Assay results published in ChEMBL document CHEMBL1156118, “Evaluation of substituted 6-arylquinazolin-4-amines as potent and selective inhibitors of cdc2-like kinases (Clk)” (Bioorg Med Chem Lett, 2009).

The chains behind the UniProt entries cited, without tags or fusion partners. Where a name states a change or a piece, a line headed by the entry shows the natural chain unless it says otherwise.
UniProt P49761: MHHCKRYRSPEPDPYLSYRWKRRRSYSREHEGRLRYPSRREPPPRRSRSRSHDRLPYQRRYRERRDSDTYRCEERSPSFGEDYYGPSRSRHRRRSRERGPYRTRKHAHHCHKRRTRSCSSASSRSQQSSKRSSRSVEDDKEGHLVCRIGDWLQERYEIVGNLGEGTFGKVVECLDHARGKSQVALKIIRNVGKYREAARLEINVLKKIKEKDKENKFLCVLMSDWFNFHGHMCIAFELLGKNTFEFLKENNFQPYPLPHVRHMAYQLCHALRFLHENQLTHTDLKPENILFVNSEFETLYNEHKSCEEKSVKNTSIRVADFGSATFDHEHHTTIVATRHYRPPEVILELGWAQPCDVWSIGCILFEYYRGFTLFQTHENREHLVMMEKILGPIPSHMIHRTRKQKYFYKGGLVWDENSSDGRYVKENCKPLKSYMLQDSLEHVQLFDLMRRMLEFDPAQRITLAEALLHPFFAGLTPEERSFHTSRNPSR
UniProt Q9HAZ1: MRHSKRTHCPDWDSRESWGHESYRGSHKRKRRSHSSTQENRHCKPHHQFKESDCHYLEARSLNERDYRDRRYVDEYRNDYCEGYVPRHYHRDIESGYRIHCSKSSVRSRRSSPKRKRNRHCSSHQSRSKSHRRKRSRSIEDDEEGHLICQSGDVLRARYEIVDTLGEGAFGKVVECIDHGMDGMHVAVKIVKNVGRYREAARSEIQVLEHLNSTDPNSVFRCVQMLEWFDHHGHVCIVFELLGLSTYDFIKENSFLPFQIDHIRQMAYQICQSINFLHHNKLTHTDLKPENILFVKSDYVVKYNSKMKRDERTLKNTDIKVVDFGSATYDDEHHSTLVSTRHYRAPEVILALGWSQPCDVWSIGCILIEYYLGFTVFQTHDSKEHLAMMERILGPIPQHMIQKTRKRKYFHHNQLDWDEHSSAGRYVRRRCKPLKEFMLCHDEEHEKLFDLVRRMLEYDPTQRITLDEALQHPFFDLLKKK
UniProt P48730: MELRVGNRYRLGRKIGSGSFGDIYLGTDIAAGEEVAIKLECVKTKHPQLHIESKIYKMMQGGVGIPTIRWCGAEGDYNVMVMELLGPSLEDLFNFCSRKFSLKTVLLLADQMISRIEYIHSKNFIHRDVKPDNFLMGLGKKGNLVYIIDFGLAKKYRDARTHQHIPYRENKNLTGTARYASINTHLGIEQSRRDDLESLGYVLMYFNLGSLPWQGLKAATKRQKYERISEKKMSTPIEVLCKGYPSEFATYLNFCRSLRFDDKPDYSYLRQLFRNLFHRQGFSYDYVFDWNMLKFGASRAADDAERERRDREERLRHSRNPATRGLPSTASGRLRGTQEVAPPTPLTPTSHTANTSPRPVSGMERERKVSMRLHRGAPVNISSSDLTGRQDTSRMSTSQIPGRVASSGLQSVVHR
UniProt P49674: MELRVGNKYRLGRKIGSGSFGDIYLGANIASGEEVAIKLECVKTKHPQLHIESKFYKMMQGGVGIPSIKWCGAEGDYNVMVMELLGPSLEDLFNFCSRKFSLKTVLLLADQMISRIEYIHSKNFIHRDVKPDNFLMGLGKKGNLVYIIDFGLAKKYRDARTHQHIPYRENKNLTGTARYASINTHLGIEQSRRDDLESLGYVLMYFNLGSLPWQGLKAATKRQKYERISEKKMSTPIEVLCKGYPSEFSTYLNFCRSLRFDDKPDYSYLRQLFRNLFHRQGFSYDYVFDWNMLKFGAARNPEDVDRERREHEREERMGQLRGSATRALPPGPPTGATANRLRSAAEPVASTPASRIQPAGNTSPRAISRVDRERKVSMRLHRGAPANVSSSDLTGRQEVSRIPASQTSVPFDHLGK

Experiments:
[1] = molecular target: Dual specificity protein kinase CLK3 (Homo sapiens, UniProt P49761); assay: Binding affinity to Clk3 assessed as dissociation constant
[2] = molecular target: Dual specificity protein kinase CLK4 (Homo sapiens, UniProt Q9HAZ1); assay: Binding affinity to Clk4 assessed as dissociation constant
[3] = molecular target: Casein kinase I isoform delta (Homo sapiens, UniProt P48730); assay: Binding affinity to CSNK1D assessed as dissociation constant
[4] = molecular target: Casein kinase I isoform epsilon (Homo sapiens, UniProt P49674); assay: Binding affinity to CSNK1E assessed as dissociation constant
[5] = molecular target: Dual specificity tyrosine-phosphorylation-regulated kinase 1A (Homo sapiens, UniProt Q13627); assay: Binding affinity to Dyrk1A assessed as dissociation constant

Kd [1]: 3000 nM
Kd [2]: 30 nM
Kd [3]: 150 nM
Kd [4]: 300 nM
Kd [5]: 12 nM
SMILES: CCN1/C(=C/C(C)=O)Sc2ccc(OC)cc21
